The record followed here is patent US12454546B2, “Inotodiol ester derivative precursor drug” (CARBOEXPERT INC., priority 2020, dated 2025).

The conditions of data set [1]: Table 3; solvent not given.
The conditions of data set [2]: distilled water, 30° C., 3 hours, supernatant filtered 0.45 μm.

As for inotodiol oleate ester, the “Concentration (solubility)” value in data set [1] is more than 1000 mg/mL. inotodiol succinate ester: the “Concentration (solubility in water)” value in data set [2] stood at 0.00271 ± 0.00025 mg/mL.
